Laboratory results: patent publication US11858925B2, “GAS41 inhibitors and methods of use thereof” (The Regents of the University of Michigan, priority 2020, dated 2024)

The chains behind the UniProt entries cited, without tags or fusion partners. Residues count along the entry.
UniProt O95619, 1-148: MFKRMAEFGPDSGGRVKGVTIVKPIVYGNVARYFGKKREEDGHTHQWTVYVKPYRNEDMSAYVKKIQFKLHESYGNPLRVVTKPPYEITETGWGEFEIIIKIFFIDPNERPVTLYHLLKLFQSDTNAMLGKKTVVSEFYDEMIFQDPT

target: T1, GAS41 YEATS domain (GST-GAS41(1-148)) (Homo sapiens, UniProt O95619); assay: not given

IC50 [nM]	SMILES
210000	CC(C)(C)c1ccc(C(=O)N2CCCC2)s1 [Compound 134, (5-(tert-butyl)thiophen-2-yl)(pyrrolidin-1-yl)methanone]

target: T1, GAS41 YEATS domain (GST-GAS41(1-148)); assay: biochemical

SMILES	IC50 [nM]
CCN(C(=O)[C@@H]1CCCN1)c1ccc(C(=O)N2CC(c3ncc(-c4ccccc4)s3)C2)s1 [Compound 104]	10000 to 50000
O=C(Nc1ccc(C(=O)N2CC(c3ncc(C4=CCNCC4)s3)C2)s1)[C@@H]1CCCN1 [Compound 112]	2000 to 10000
O=C(Nc1ccc(C(=O)N2CC3(CC(Oc4nccs4)C3)C2)s1)[C@@H]1CCCN1 [Compound 115]	10000 to 50000
O=C(Nc1ccc(C(=O)N2CC(c3ncc(-c4cccc5c4ccn5CC4CNC4)s3)C2)s1)[C@@H]1CCCN1 [Compound 116]	< 2000
O=C(Nc1ccc(C(=O)N2CC3(CC(Oc4ccccc4)C3)C2)s1)[C@@H]1CCCN1 [Compound 120]	2000 to 10000
O=C(Nc1ccc(C(=O)N2CC3(CC(c4nccs4)C3)C2)s1)[C@@H]1CCCN1 [Compound 121]	2000 to 10000
O=C(Nc1ccc(C(=O)N2CC3(CC(c4ccncc4)C3)C2)s1)[C@@H]1CCCN1 [Compound 122]	2000 to 10000
O=C(Nc1ccc(C(=O)N2CC(c3ncc(-c4cccc(C5CCNCC5)c4)s3)C2)s1)[C@@H]1CCCN1 [Compound 128]	2000 to 10000
CN1CCN(Cc2cccc(-c3cnc(C4CN(C(=O)c5ccc(NC(=O)[C@@H]6CCCN6)s5)C4)s3)c2)CC1 [Compound 129]	< 2000
O=C(NCc1ccc(-c2cnc(C3CN(C(=O)c4ccc(NC(=O)[C@@H]5CCCN5)s4)C3)s2)cc1)c1ccccc1 [Compound 130]	< 2000
O=C(NCc1ccc(-c2cnc(C3CN(C(=O)c4ccc(NC(=O)[C@@H]5CCCN5)s4)C3)s2)cc1)C1CCCC1 [Compound 131]	< 2000
CC(C)(C)c1ccc(C(=O)N2CCCC2)s1 [Compound 134, (5-(tert-butyl)thiophen-2-yl)(pyrrolidin-1-yl)methanone]	> 50000
O=C(Nc1ccc(C(=O)N2CCCC2)s1)[C@H]1NCC[C@@H]1O [Compound 208]	10000 to 50000
O=C(Nc1ccc(C(=O)N2CC(c3ncc(-c4ccc(Cn5cccn5)cc4)s3)C2)s1)[C@@H]1CCCN1 [Compound 234]	< 2000
CC(=O)NCc1ccc(-c2cnc(C3CN(C(=O)c4ccc(NC(=O)[C@@H]5CCCN5)s4)C3)s2)cc1C1CNC1 [Compound 236]	< 2000
CCC(CC)C(=O)N(C)Cc1ccc(-c2cnc(C3CN(C(=O)c4ccc(NC(=O)[C@@H]5CCCN5)s4)C3)s2)cc1 [Compound 238]	2000 to 10000
O=C(c1ccc(N2CCC3(CCCN3)C2=O)s1)N1CC(c2ncc(-c3ccccc3)s2)C1 (stereo not drawn) [Compound 239]	2000 to 10000
CC(=O)NCc1ccc(-c2cnc(C3CN(C(=O)c4ccc(NC(=O)[C@@H]5CCCN5)s4)C3)s2)cc1C1CN(C)C1 [Compound 242]	< 2000
CC(=O)NCc1ccc(-c2cnc(C3CN(C(=O)c4ccc(NC(=O)[C@@H]5CCCN5)s4)C3)s2)cc1C1CN(C(C)C)C1 [Compound 243]	< 2000
CC(=O)NCc1ccc(-c2cnc(C3CN(C(=O)c4ccc(N5CCC6(CCCN6)C5=O)s4)C3)s2)cc1 (stereo not drawn) [Compound 244]	< 2000
CC(=O)NCc1ccc(-c2cnc(C3CN(C(=O)c4ccc(NC(=O)[C@@H]5CCCN5)s4)C3)s2)cc1C1CCNCC1 [Compound 245]	< 2000
CC(=O)NCc1ccc(-c2cnc(C3CN(C(=O)c4ccc(NC(=O)[C@@H]5CCCN5)s4)C3)s2)cc1CC1CNC1 [Compound 246]	< 2000

Results, then the compound that gave them:

IC50 [nM]	SMILES
10000 to 50000	Nc1ccc2scc(C3CN(C(=O)c4ccc(NC(=O)[C@@H]5CCCN5)s4)C3)c2c1 [Compound 103]
< 2000	Cc1nc(C2CN(C(=O)c3ccc(NC(=O)[C@@H]4CCCN4)s3)C2)sc1-c1ccncc1 [Compound 106]
< 2000	Nc1ccccc1-c1cnc(C2CN(C(=O)c3ccc(NC(=O)[C@@H]4CCCN4)s3)C2)s1 [Compound 107]
2000 to 10000	O=C(Nc1ccc(C(=O)N2CC(c3ncc(-c4nccs4)s3)C2)s1)[C@@H]1CCCN1 [Compound 108]
< 2000	O=C(Nc1ccc(C(=O)N2CC(c3ncc(-c4cccc5[nH]ccc45)s3)C2)s1)[C@@H]1CCCN1 [Compound 109]
< 2000	O=C(Nc1ccc(C(=O)N2CC(c3ncc(-c4ccn[nH]4)s3)C2)s1)[C@@H]1CCCN1 [Compound 110]
< 2000	O=C(Nc1ccc(C(=O)N2CC(c3ncc(-c4cnc[nH]4)s3)C2)s1)[C@@H]1CCCN1 [Compound 111]
2000 to 10000	O=C(Nc1ccc(C(=O)N2CC(c3ncc(-c4cccc5[nH]cnc45)s3)C2)s1)[C@@H]1CCCN1 [Compound 117]
2000 to 10000	O=C(Nc1ccc(C(=O)N2CC(c3ncc(-c4cccc(C5CCCN5)c4)s3)C2)s1)[C@@H]1CCCN1 (stereo partly drawn) [Compound 127]
< 2000	CC(=O)NCc1cccc(-c2cnc(C3CN(C(=O)c4ccc(NC(=O)[C@@H]5CCCN5)s4)C3)s2)c1 [Compound 241]
